Reference: article PMC2828546, “Screening-based discovery of drug-like O-GlcNAcase inhibitor scaffolds” (Febs Letters, 2010)

Biological target: T1, hOGA (Homo sapiens, UniProt O60502)
T1 construct: made in house
T1 sequence (O60502 1-916): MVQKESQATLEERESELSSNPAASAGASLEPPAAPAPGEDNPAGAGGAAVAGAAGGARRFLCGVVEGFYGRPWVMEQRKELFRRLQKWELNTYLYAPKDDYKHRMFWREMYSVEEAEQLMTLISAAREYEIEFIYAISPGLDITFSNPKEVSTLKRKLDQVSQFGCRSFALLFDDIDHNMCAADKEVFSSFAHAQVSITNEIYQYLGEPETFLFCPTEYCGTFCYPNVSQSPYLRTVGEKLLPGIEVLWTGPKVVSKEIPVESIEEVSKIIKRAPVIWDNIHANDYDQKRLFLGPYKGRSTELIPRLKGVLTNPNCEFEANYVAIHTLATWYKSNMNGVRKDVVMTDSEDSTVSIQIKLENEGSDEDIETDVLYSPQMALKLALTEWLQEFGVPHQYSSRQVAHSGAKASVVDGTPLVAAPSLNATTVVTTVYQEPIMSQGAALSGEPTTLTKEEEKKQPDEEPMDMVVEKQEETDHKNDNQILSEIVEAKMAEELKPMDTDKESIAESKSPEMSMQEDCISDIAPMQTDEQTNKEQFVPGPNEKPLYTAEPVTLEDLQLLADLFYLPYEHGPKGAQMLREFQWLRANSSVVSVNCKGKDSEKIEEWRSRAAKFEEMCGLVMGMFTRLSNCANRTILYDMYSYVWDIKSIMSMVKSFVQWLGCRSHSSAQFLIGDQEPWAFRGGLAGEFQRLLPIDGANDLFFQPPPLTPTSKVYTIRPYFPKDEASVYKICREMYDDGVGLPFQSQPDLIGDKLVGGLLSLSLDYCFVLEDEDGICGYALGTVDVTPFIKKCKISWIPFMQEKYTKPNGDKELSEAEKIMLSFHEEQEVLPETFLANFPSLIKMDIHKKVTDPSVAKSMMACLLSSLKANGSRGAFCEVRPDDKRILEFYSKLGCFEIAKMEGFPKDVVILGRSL
Test: hOGA inhibition, fluorogenic 4MU-NAG substrate
Format: biochemical
Details: for Selectivity (HexA/B/hOGA): ratio of HexA/B to hOGA inhibition constants

CC(=O)N1CCN(c2ccc(OCC3COC(Cn4ccnc4)(c4ccc(Cl)cc4Cl)O3)cc2)CC1 (stereo not drawn) [Ketoconazole, ketoconazole]
Selectivity (HexA/B/hOGA): 2.6

CNc1ncnc2nc[nH]c12 [N^6-methyladenine]
hOGA BEI (Binding Efficiency Index) (BEI = -log(Ki)/M, M in kDa, Ki from IC50 by Cheng-Prusoff): 34 | Selectivity (HexA/B/hOGA): 75
